# From PubChem BioAssay AID2006 (Sanford-Burnham Center for Chemical Genomics, 2009)
# By UniProt entry, the sequences of proteins in these tests, tags left out.
# UniProt P63279, whole entry, looked up: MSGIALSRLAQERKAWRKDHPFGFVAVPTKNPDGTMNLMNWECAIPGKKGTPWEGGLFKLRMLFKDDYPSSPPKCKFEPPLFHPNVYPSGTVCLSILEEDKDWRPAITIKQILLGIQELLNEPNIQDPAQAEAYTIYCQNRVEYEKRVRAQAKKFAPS
# Several values for one entry are separate records, joined by “and”; a condition that tells them apart may be missing. Equal entries are not always repeated. Only a part is listed here, and it is no random draw. Activity calls are given as the source filed them. Rule as the data show it: active = inhibition above about 50% (passing the limit was not always enough); inconclusive = no clear call, values can overlap the other calls.
# Biological target: SUMO-conjugating enzyme UBC9 (Homo sapiens) (UniProt P63279)
# Test: blockers of SAE1/SAE2–UBC9 SUMO transfer – biochemical, HTRF, uHTS, primary screen (AID 2006)
# Settings: HTRF SUMOylation assay, SAE1/SAE2 + UBC9, in vitro; at 35 µM; hits give high values
row,SMILES,inhibition
1,Cc1nn(-c2ccccc2)c2c1P(=O)(N1CCOCC1)N(C)C(c1ccccc1)=N2 (stereo not drawn),inactive: -0.7%
2,CC1CCC(C(C)C)C(OP(=O)(Nc2ccccn2)c2ccccc2)C1 (stereo not drawn),inactive: -12.9%
3,Cc1ccc(C(=O)OC2CN3CCC2CC3)cc1 (stereo not drawn),inactive: -6%
4,CN(C)C1(CNC(=O)c2ccc(S(C)(=O)=O)cc2)CCCCC1,inactive: 13.5%
5,O=C(/C=C/c1ccccc1)OC1CN2CCC1CC2 (stereo not drawn),inactive: -10.3%
6,O=P1(Nc2ncccn2)COc2ccccc2OC1,inactive: 1.6%
7,Nc1cccc([As](=O)(O)c2ccccc2)c1,inactive: 14.4%
8,O=P1(Nc2ccc(Br)cn2)COc2ccccc2OC1,inactive: 5.4%
9,Cc1ccc(OCC(=O)OC2CN3CCC2CC3)cc1 (stereo not drawn),inactive: -3.1%
10,O=[As](O)(c1cccs1)c1cccs1,inactive: 21.3%
11,O=P1(Nc2ccccn2)COc2ccccc2OC1,inactive: 8.4%
12,CCC1=CC2Cc3nc4ccc(Cl)cc4c(N)c3C(C1)C2 (stereo not drawn),inactive: 8.4%
13,CCOP(=O)(NC(=NC(C)c1ccccc1)NC(C)c1ccccc1)OCC (stereo not drawn),inactive: 12.4%
14,CCOP(=O)(Nc1ccc(C)cn1)OCC,inactive: 18.7%
15,Clc1n[nH]nc1-c1nn[nH][15n]1,inactive: 21.7%
16,CC(C)(C)C(=O)NC(Sc1ncccn1)C(Cl)(Cl)Cl (stereo not drawn),inactive: 1%
17,CC(C)/C=N\N=C(\N)N[N+](=O)[O-],inactive: 10.4%
18,CN(C(=O)Cc1ccc(Cl)c(Cl)c1)[C@@H]1CCCC[C@H]1N1CCCC1,inactive: 18.1%
19,O=[As](O)(c1ccccc1Br)c1ccccc1Br,inactive: 14.1%
20,O=C(OC1CN2CCC1CC2)c1ccc(Cl)cc1 (stereo not drawn),inactive: 5.9%
21,COc1cc(C(=O)NCC2(N3CCOCC3)CCCCC2)cc(Cl)c1OC(C)C,inactive: 2.7%
22,O=[As](O)(O)c1cccnc1,inactive: 13.9%
23,CS(=O)(=O)c1ccc(Cl)c(NC(=O)COC(=O)C(O)(c2ccccc2)c2ccccc2)c1,inactive: -17%
24,O=[As](O)(c1cccc(O)c1)c1cccc(O)c1,inactive: 13%
25,Cc1cccc(OCC(=O)OC2CN3CCC2CC3)c1 (stereo not drawn),inactive: -13.4%
26,Cc1ccc(NCCc2c([N+](=O)[O-])cc([N+](=O)[O-])cc2[N+](=O)[O-])cc1,inactive: 30.1%

row,SMILES,inhibition
1,CCCOP(=S)(Nc1nc(N)cc(=O)[nH]1)OCCC,inactive: 10.1%
2,COc1cc(C2NCCC3(OCCO3)C2(C)C)cc(OC)c1OC (stereo not drawn),inactive: -9.1%
3,CCOP(=O)(Nc1cccc2ccccc12)OCC,inactive: 1.2%
4,CCOP1(=S)c2c(C)nn(CCC#N)c2N=C(c2ccccc2F)N1C (stereo not drawn),inactive: -12.3%
5,O=P(Nc1nccs1)(c1ccccc1)c1nc2ccccc2s1 (stereo not drawn),inactive: 2.2%
6,O=P(Nc1nccs1)(Oc1ccccc1)Oc1ccccc1,inactive: 9.4%
7,CS(=O)(=O)c1cc([N+](=O)[O-])c2no[n+]([O-])c2c1,inactive: 29.8%
8,Nc1ccccc1[As](=O)(O)c1ccccc1,inactive: 14%
9,O=C(O)COc1ccc([As](=O)(O)O)cc1[N+](=O)[O-],inactive: -0.4%
10,NC(=O)Nc1ccc([As](=O)(O)O)cc1,inactive: 20.7%
11,CN(C(=O)Cc1ccccc1)[C@@H]1CC[C@]2(CCCO2)C[C@H]1N1CCCC1,inactive: -3.1%
12,CCOP1(=S)c2c(C)nn(CCC#N)c2N=C(c2ccc(F)cc2)N1C (stereo not drawn),inactive: 3.3%
13,O=[N+]([O-])c1ccc2c(c1)nnn2O,inactive: 1%
14,O=[As](O)(c1ccc(O)cc1)c1ccccc1O,inactive: 1%
15,C[As](=O)(O)c1cccc(C(=O)O)c1,inactive: 14.6%
16,Cc1ccc(OP(=O)(Nc2ccc([N+](=O)[O-])cn2)Oc2ccc(C)cc2)cc1,inactive: 15.6%
17,Cc1ccc2nc3c(c(C)c2c1)CC(C(Cl)Cl)S3 (stereo not drawn),inactive: -25.4%
18,ClCCSc1nnc(-c2cccnc2)o1,inactive: 13.7%
19,CC(C)c1ccc(OP(=O)(Nc2ccccn2)Oc2ccccc2F)cc1 (stereo not drawn),inactive: 9.2%
20,CCN(CC)C(=S)SC(NC=O)C(Cl)(Cl)Cl (stereo not drawn),inactive: -20.8%
21,CC(C)NC(=O)NP(=O)(Oc1ccccc1)Oc1ccccc1,inactive: 31%
22,Cc1c2c(nc3ccccc13)SC(C(Cl)Cl)C2 (stereo not drawn),inactive: 17.6%
23,O=C(OC1CN2CCC1CC2)C12CC3CC(CC(C3)C1)C2 (stereo not drawn),inactive: -5.3%
24,Cc1cc(=O)[nH]c(N[N+](=O)[O-])n1,inactive: 4.9%
25,COc1ccc2nc(NP(=O)(c3ccccc3)c3ccccc3)sc2c1,inactive: 4.2%
26,COc1cc(I)ccc1[As](=O)(O)O,inactive: -0.4%

row,SMILES,inhibition
1,COc1ccc(N/C(=N/P(=O)(N2CCOCC2)N2CCOCC2)N2CCOCC2)cc1,inactive: -9.6%
2,COP1(=S)c2c(C)nn(CCC#N)c2N=C(c2ccc(F)cc2)N1C (stereo not drawn),inactive: -1.4%
3,O=C(COc1ccccc1)OC1CN2CCC1CC2 (stereo not drawn),inactive: 11.1%
4,O=C(Nc1ccncc1[N+](=O)[O-])c1ccc([N+](=O)[O-])cc1[N+](=O)[O-],inactive: 10.4%
5,O=C(OC1CN2CCC1CC2)c1cccc([N+](=O)[O-])c1 (stereo not drawn),inactive: 0.8%
6,CCOC(=O)c1ccc(NC(=O)C(C)(CCl)SC)cc1 (stereo not drawn),inactive: -0.9%
7,CCC(C)N(CC(C)C)C(=S)SC(NC(C)=O)C(Cl)(Cl)Cl (stereo not drawn),inactive: 19.1%
8,CCOC(=O)Nc1ccc([As](=O)(O)O)c(O)c1,inactive: 27.7%
9,CCCCOc1ccc(C(=O)NCC2(N3CCCCC3)CCCCC2)cc1OC,inactive: 7.5%
10,Cc1cc(SC(NC(=O)c2ccccc2)C(Cl)(Cl)Cl)nc(C(C)C)n1 (stereo not drawn),inactive: 14.3%
11,CCOC(=O)Nc1cccc([As](=O)(O)O)c1,inactive: 15.6%
12,O=P(Nc1ccccn1)(c1cccc2ccccc12)c1cccc2ccccc12,inactive: -3.6%
13,Cc1cc(SC(NC=O)C(Cl)(Cl)Cl)ncn1 (stereo not drawn),inactive: 23.7%
14,O=[N+]([O-])c1ccc(Nc2ccc(Oc3ccc([N+](=O)[O-])cc3[N+](=O)[O-])cc2)c([N+](=O)[O-])c1,inactive: 11.9%
15,O=C(Nc1cc([As](=O)(O)O)ccc1O)c1ccccc1,inactive: 12.4%
16,O=[N+]([O-])c1ncn(CCn2ncnc2[N+](=O)[O-])n1,inactive: 4.4%
17,CC(C)(C)C(=O)NC(Sc1ccncn1)C(Cl)(Cl)Cl (stereo not drawn),inactive: 18.6%
18,O=C(O)CNc1ccc([As](=O)(O)O)cc1,inactive: 14.8%
19,O=[N+]([O-])c1cccc(NC2=NCC(CBr)S2)c1 (stereo not drawn),inactive: 1%
20,COc1ccc(C2=NCC(CBr)S2)cc1 (stereo not drawn),inactive: 5.1%
21,Cc1ccc(NP(=O)(Oc2ccccc2)Oc2ccccc2)nc1,inactive: 26.3%
22,CCc1nc2c(n1)c1c(non1O)c1c2no[n+]1[O-],inactive: 31.4%
23,O=[N+]([O-])c1cc([N+](=O)[O-])c(CCNc2ccccc2)c([N+](=O)[O-])c1,inactive: 17.4%
24,O=[N+]([O-])c1cccc2n[nH]nc12,inactive: 8.1%
25,CC(=O)N1C2C3N(C(C)=O)C1C1N(C(C)=O)C(C(N1C(C)=O)N3C(C)=O)N2C(C)=O,inactive: 28.5%
26,CCN(/C(=N/P(=O)(N1CCOCC1)N1CCOCC1)N1CCOCC1)c1ccc(OC)cc1,inactive: -8.7%

row,SMILES,inhibition
1,Nc1ccc([As](=O)(O)c2ccc(N)cc2)cc1,inactive: -3.8%
2,C[N+]1=C2C=CC=CC=C2SC12C([N+](=O)[O-])=CC([N+](=O)[O-])=C[C-]2[N+](=O)[O-] (stereo not drawn),active: 61.1%
3,CC1CCN(C(=O)Oc2c(Cl)cc(Cl)c3cccnc23)CC1,inactive: -8.8%
4,CC(C)=N/N=C(\N)N[N+](=O)[O-],inactive: 2.2%
5,CN(C)C(=O)OCCc1n(C)cc[n+]1C,inactive: -8.4%
6,Cc1ccc(N/C(=N/P(=O)(N2CCOCC2)N2CCOCC2)N2CCOCC2)cc1,inactive: 6.6%
7,NC(=O)c1cc([N+](=O)[O-])cc([N+](=O)[O-])c1N,inactive: -0.1%
8,Clc1ccc(Cl)c(NC2=NCC(CBr)S2)c1 (stereo not drawn),inactive: -19.2%
9,CN1CCCC(OC(=O)C(c2ccccc2)c2ccccc2)C1 (stereo not drawn),inactive: 17.6%
10,COc1ccccc1OP(=O)(Nc1ccc(C)cn1)Oc1ccccc1OC,inactive: 3.2%
11,Cc1ccc(OP(=O)(Nc2nccs2)Oc2ccc(C)cc2)cc1,inactive: 13.8%
12,Oc1ccccc1CNc1ccccn1,inactive: -12.6%
13,Cc1c2non([O-])c-2c(C)[n+](=O)[n+]1[O-],inactive: 13.5%
14,O=C(NC(Sc1ccncn1)C(Cl)(Cl)Cl)c1ccccc1 (stereo not drawn),inactive: 3%
15,CC(C)CC(=O)NC(Sc1ccc(Cl)cc1)C(Cl)(Cl)Cl (stereo not drawn),inactive: 9.4%
16,Nc1cc(N)c2nonc2c1[N+](=O)[O-],inactive: 22%
17,O=P(Nc1nc2ccc(Cl)cc2s1)(c1ccccc1)c1ccccc1,inactive: -1.7%
18,O=C(O)c1ccccc1[As](=O)(O)O,inactive: 16.2%
19,CC(=O)Nc1ccc([As](=O)(O)O)cc1,inactive: 22%
20,CCOP(=O)(Nc1ccccc1)OCC,inactive: 19.8% and inactive: 8.7%
21,Cc1cc(SC(NC(=O)c2ccc(F)cc2)C(Cl)(Cl)Cl)ncn1 (stereo not drawn),inactive: 7.8%
22,Cc1ccc(NP(=O)(Oc2ccccc2F)Oc2ccccc2F)nc1,inactive: 11.2%
23,O=[N+]([O-])c1cc([N+](=O)[O-])c(CCN2CCOCC2)c([N+](=O)[O-])c1,inactive: 23.5%
24,CCN(N=Nc1nonc1N)c1nonc1N,inactive: 4.2%
25,c1ccc(-c2nn[nH]n2)c(-c2nn[nH]n2)c1,inactive: -15.4%
